This is an account of results in ChEMBL document CHEMBL1154676, “Synthetic mRNA splicing modulator compounds with in vivo antitumor activity” (J Med Chem, 2009).

Structures are written as SMILES. pIC50: −log10 of the molar value.

One may read the pIC50 as the negative decadic logarithm of the IC50, by convention in mol/L. Lower therefore signals a large IC50.

The test system of the assay is WiDr. The assay is described as follows: Cytotoxicity against human WiDr cells after 72 hrs by XTT assay. In kind it is functional, cell-based. A digest of the protocol: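 Cells grown at 37 °C, 5% CO2; HFF in DMEM with 10% FBS, PrEC in prostate epithelial growth medium. Adherent lines seeded overnight, suspension lines same day; compounds diluted from DMSO stocks into media at various final concentrations, 72 h exposure. XTT reagent added 4 h, absorbance 490 nm (reference 690 nm). Growth as % of vehicle; IC50 from sigmoidal dose-response fit; mean ± SEM, three independent experiments.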

Take `CC(/C=C/[C@@H]1C[C@]2(CO2)CC(C)(C)O1)=C\C[C@H]1CC[C@@H](NC(=O)/C=C\[C@H](C)OC(=O)N2CCN(C3CCCCCC3)CC2)CC1`: the pIC50 is 5.40.
